# Measured values as given in US6362216B1, “Compounds which inhibit tryptase activity” (Array Biopharma Inc., priority 1998, dated 2002).
# Amino acid sequences for entries named in this document (tags omitted). Residues count along the entry.
# UniProt P00760, 24-246 limits assumed: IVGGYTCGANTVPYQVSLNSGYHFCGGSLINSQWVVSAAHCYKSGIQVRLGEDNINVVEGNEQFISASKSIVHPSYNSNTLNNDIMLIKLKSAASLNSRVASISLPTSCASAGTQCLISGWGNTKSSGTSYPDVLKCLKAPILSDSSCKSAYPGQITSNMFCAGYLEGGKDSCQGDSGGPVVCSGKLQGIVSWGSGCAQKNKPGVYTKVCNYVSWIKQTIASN
# Experiments:
# [1] = target: Human lung tryptase; test: Human lung tryptase inhibition, chromogenic GPR-pNA substrate; settings: read-out: Tryptase Ki; tryptase 1 nM, GPR-pNA 320 μM, 50 mM Tris-HCl pH 8.0, 37° C.
# Experimental: (§1) Protease inhibition was assayed according to published procedures with minor modifications using various proteases and specific chromogenic peptide p-nitroanilide substrates. Assays were performed in Costar ultra-low cluster 96-well microtiter plate (Costar Corning Corp., Cambridge Mass.). Each protease was incubated with various concentrations of the test compound for 15 min. at 37° C. or as otherwise indicated, in specific assay buffer, and the residual activity was then measured by addition of the substrate. p-Nitroaniline produced by the proteolysis was determined by measuring the change in absorbance at 405 nm on a SpectraMAX 340 plate reader (Molecular devices, Sunnyvale, Calif.).
# (§2) 1. The inhibition constant, Ki is calculated from individual data points using the equation for a tight-binding inhibitor (See Beith, “Proteinase Inhibitors-Proceedings of 2nd Int. Res. Conference”, Fritz, et al. eds., New York, p.4463-4469 (1974)): […]
# [note: [E]o is determined by active site titration of enzyme] […]
# (§3) 2. Other inhibition data (Ki>>[E]o), the Ki is calculated from using the equations for a competitive inhibitor: [formula]
# IC50 is determined by fitting the individual inhibition data point to Sigmoid or four-parameter curve-fit equations. […]
# (§4) The inhibition constant (Ki) of the test compounds against each proteolytic enzyme was determined according to Zitnik et al., Biochem. Biophys. […]
# [2] = target: Bovine pancreatic Trypsin (TPCK-treated) (Bos taurus, UniProt P00760); test: Bovine pancreatic trypsin inhibition, N-α-Benzoyl-L-Arg-pNA substrate; settings: read-out: Trypsin Ki; 50 mM Tris-HCl, pH 8.2, 20 mM CaCl2
# Experimental: as §1, §2
# 2. Other inhibition data (Ki>>[E]o), the Ki is calculated from using the equations for a competitive inhibitor: [formula] […]
# Bovine pancreatic Trypsin (TPCK-treated) activity was determined by using N-α-Benzoyl-L-Arg-pNA in 50 mM Tris-HCl, pH 8.2, 20 mM CaCl2 (See Somorin, et al., J. Biochem. 85, 157-162 (1979)).
# as §4
# [3] = target: Human plasma thrombin (Homo sapiens, UniProt P00734); test: Human plasma thrombin inhibition, H-D-Phe-Pip-Arg-pNA substrate; settings: read-out: Thrombin Ki; 50 mM Tris-HCl, pH 8.3, 100 mM NaCl, 1% BSA
# Experimental: as §1, §2, §3
# Human plasma thrombin activity was determined by using H-D-Phe-Pip-Arg-pNA in 50 mM Tris-HCl, pH 8.3, 100 mM NaCl, 1% BSA (See Lottenberg, et al., Meth. Enzymol. 80, 341-361 (1981)).
# as §4
compound,measurement,setting,value
N=C(N)c1ccc2[nH]c(CC(=O)Nc3ccc(N)cc3)nc2c1,Ki,[1],3000 nM
same,Ki,[2],14.2 µM
same,Ki,[3],> 100 µM
